Among the data in patent US4432983A (Research Corporation, priority 1981, dated 1984) are Kb values, retold here.

Protein sequences, listed by entry. Tags and fused reporters are not part of them.
UniProt P47747, whole entry: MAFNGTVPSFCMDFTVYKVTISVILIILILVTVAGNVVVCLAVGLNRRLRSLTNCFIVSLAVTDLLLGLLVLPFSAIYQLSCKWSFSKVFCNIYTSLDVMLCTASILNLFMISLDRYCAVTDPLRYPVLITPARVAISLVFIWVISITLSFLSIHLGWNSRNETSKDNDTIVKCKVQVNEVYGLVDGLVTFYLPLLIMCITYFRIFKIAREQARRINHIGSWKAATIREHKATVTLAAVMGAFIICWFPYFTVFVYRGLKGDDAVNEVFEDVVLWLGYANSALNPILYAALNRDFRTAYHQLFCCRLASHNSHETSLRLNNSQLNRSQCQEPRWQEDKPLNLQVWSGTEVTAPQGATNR

This experiment addresses T1, histamine H2-receptor (isolated guinea pig right atrium) (Cavia porcellus, UniProt P47747).
T1 construct: All other tissue was carefully trimmed away, leaving only the right atrium; from tissue; host or cells: isolated right atrium of guinea pig (Hartley strain) heart
The experiment is described as follows: Histamine H2-receptor antagonism: histamine-induced chronotropic response of isolated guinea pig right atrium. The protocol:
Guinea pigs (Hartley strain) of either sex (400-700 g) were allowed at least two weeks acclimation period. The animals were housed two per cage in wire-meshed bottom stainless steel cages in animal quarters maintained on a 12 hour light:12 hour dark cycle with ambient temperature of approximately 24° C. Food (Ralston-Purina guinea pig chow #5025) and water were provided ad libitum.
The animals were stunned by a blow to the head and the heart was quickly removed and placed in Tyrode's solution (composition in g/L of distilled water: NaCl, 8.00; KCl, 0.20; MgSO4.7 H2 O, 0.10; CaCl2, 0.20; NaH2 PO4, 0.05; NaHCO3, 1.00; glucose, 1.00) at room temperature. All other tissue was carefully trimmed away, leaving only the right atrium. […]
A straight line was fitted to the data points of each determination within each group by linear regression analysis. The slope and the ED50 were calculated from the regression line, the slopes and ED50 values of each group were averaged, and the standard deviations were calculated. […] The 95 percent confidence limits were calculated using the following formula: confidence limits=±ts√N where t=Student's t value, s=standard deviation, and N=number of determinations.

The Kb is the affinity of an antagonist, worked out from how it opposes an agonist. Lower therefore signals a more potent antagonist. Turning to `CN/C(=N/CCSCc1nc[nH]c1C)NC#N` [cimetidine, reference compound], the Kb is 200 nM.
